Patent publication US20250360145A1 (published 2025)

Protein sequences, listed by entry. Tags and fused reporters are not part of them. Residues count along the entry.
UniProt P07333, 20-972: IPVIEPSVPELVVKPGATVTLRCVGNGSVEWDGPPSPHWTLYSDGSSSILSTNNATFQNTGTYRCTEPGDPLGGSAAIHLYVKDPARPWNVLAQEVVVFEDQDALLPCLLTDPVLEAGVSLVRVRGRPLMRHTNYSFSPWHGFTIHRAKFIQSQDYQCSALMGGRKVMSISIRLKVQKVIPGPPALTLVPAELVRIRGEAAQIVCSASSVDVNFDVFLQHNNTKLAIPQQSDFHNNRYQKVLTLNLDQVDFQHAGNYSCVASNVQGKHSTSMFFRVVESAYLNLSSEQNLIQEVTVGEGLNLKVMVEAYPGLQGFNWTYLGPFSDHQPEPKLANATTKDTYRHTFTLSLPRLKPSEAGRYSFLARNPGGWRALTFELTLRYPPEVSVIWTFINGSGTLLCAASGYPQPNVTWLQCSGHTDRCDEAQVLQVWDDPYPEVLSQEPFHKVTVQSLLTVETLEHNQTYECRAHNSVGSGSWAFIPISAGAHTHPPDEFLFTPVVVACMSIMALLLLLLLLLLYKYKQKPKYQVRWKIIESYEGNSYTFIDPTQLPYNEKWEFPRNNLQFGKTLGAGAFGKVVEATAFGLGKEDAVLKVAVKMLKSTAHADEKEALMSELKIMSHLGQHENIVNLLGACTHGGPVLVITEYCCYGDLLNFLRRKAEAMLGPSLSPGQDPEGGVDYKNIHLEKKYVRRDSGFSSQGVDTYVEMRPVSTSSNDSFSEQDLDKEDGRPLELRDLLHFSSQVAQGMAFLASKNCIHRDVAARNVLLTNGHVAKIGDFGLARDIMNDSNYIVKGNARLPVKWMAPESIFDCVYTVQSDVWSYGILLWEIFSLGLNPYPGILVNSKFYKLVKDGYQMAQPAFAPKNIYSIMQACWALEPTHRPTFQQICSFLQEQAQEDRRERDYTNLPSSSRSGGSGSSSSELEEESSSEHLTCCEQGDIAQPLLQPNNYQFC

Molecular target: CSF-1R (Homo sapiens (Human), UniProt P07333)
Experiment: Biochemical HTRF kinase assay, CSF-1R;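 also: enzyme incubated with inhibitor plus a substrate and ATP mix for one hour at room temperature before HTRF detection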
Details: read-out: CSF-1R IC50

`COc1ccc(COc2ncc(Cc3ccnc4cc(Cl)cnc34)cc2OC)nc1` [Example 62, 3-chloro-8-((5-methoxy-6-((5-methoxypyridin-2-yl)methoxy)pyridin-3-yl)methyl)-1,5-naphthyridine] was tested, and the IC50 was 10.9 nM.
